Results taken from paper PMC2642980 (Bioorganic & medicinal chemistry letters, 2008).

Molecular target: T1, adenosine deaminase (ADA) (Homo sapiens, UniProt P00813)
T1 sequence (P00813 1-363): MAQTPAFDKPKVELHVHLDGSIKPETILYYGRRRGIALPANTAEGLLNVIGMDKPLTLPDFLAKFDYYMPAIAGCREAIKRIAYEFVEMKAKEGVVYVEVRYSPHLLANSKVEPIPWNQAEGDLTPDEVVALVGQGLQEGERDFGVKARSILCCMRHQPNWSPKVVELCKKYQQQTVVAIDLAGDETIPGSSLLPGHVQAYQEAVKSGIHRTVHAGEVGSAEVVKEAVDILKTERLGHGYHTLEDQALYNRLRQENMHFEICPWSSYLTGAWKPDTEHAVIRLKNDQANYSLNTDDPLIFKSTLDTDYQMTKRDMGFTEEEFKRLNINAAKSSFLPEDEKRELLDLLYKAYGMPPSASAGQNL
Test: Deamination by adenosine deaminase
Details: incubation with adenosine deaminase, 90 min

1-Beta-D-arabinofuranosyladenine [Vidarabine]
Deamination by adenosine deaminase: rapidly hydrolyzed
